Measurements as given in PMC2697266 (Nature, 2009).

Target: T1, JARID1APHD3 (Homo sapiens, UniProt P29375)
T1 sequence (P29375 1607-1661 limits assumed): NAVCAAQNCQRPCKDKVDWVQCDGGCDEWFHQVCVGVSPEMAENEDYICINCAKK
Test: Biotinylated histone peptide pull-down, JARID1APHD3
Assay type: binding
Settings: 50mM Tris pH 7.5, 150mM NaCl (250mM as stringent washing), 0.05% NP-40, 0.3mg/ml BSA, 1mM DTT; qualitative

- interaction with JARID1APHD3 in peptide pull-down: interacted
Substance: H3K4me2: Histone H3 peptide dimethylated at Lys4
